The values that follow come from ChEMBL document CHEMBL5344482, “Deconvoluting low yield from weak potency in direct-to-biology workflows with machine learning” (RSC Med Chem, 2024).

The target of the assay is Replicase polyprotein 1ab (Severe acute respiratory syndrome coronavirus 2, UniProt P0DTD1). In words: Inhibition of SARS-Cov-2 main protease using fluorogenic substrate [5-FAM]-AVLQSGFR-[Lys(Dabcyl)]-K-amide by fluorogenic assay.

In turn, `Cc1ccc(CCN)cc1` showed an IC50 of 77 nM.
